According to patent publication US20200024278A1, “COMPOSITION COMPRISING ANTIBIOTIC COMPOUND AND AN HETEROCYCLIC COMPOUND AND THEIR USE IN PREVENTING OR TREATING BACTERIAL INFECTIONS” (MUTABILIS, priority 2016, published 2020):

Columns and labels:
Experiment in all cases: MIC, broth microdilution (CLSI), substance alone or ATB combined with compound at 4 or 8 μg/mL
ECO UFR39 = format: cell-based, E. coli
KPN 6299 = format: cell-based, K. pneumoniae
KPN UFR42 = format: cell-based, K. pneumoniae
SPN 49619 = format: cell-based, S. pneumoniae
ECL P99 = format: cell-based, E. cloacae

Compound: O=C(N[C@H](CO)[C@H](O)c1ccc([N+](=O)[O-])cc1)C(Cl)Cl [CM]
- MIC ATB combined with Example 9 @4 μg/ml (ECO UFR39; with Example 9 @4 μg/ml): <0.031 µg/mL
- MIC ATB combined with Example 9 @4 μg/ml (ECO UFR39; with Example 9 at 4 μg/ml): <0.031 µg/mL
- MIC ATB combined with Example 11 @8 μg/ml (ECO UFR39; with Example 11 at 8 μg/ml): <0.031 µg/mL
- MIC ATB combined with Example 12 @8 μg/ml (ECO UFR39; with Example 12 at 8 μg/ml): <0.031 µg/mL
- MIC ATB combined with Example 14 @8 μg/ml (ECO UFR39; with Example 14 at 8 μg/ml): <0.031 µg/mL
- MIC ATB combined with Example 15 @4 μgml (ECO UFR39; with Example 15 at 4 μg/ml): <0.031 µg/mL
- MIC ATB combined with Example 16 @4 μg/ml (ECO UFR39; with Example 16 at 4 μg/ml): <0.031 µg/mL
- MIC ATB alone (KPN 6299; antibiotic alone): >32 µg/mL
- MIC ATB combined with Example 1 @8 μg/ml (KPN 6299; with Example 1 @8 μg/ml): >32 µg/mL
- MIC ATB combined with Example 1 @8 μg/ml (KPN 6299; with Example 1 at 8 μg/ml): >32 µg/mL
- MIC ATB combined with Example 7 @8 μgml (KPN 6299; with Example 7 at 8 μg/ml): >32 µg/mL
- MIC ATB combined with Example 9 @4 μg/ml (KPN 6299; with Example 9 @4 μg/ml): >32 µg/mL
- MIC ATB combined with Example 9 @4 μg/ml (KPN 6299; with Example 9 at 4 μg/ml): >32 µg/mL
- MIC ATB combined with Example 11 @8 μg/ml (KPN 6299; with Example 11 at 8 μg/ml): <0.031 µg/mL
- MIC ATB combined with Example 12 @8 μg/ml (KPN 6299; with Example 12 at 8 μg/ml): <0.031 µg/mL
- MIC ATB combined with Example 13 @8 μg/ml (KPN 6299; with Example 13 at 8 μg/ml): >32 µg/mL
- MIC ATB combined with Example 14 @8 μg/ml (KPN 6299; with Example 14 at 8 μg/ml): <0.031 µg/mL
- MIC ATB combined with Example 15 @4 μgml (KPN 6299; with Example 15 at 4 μg/ml): <0.031 µg/mL
- MIC ATB combined with Example 16 @4 μg/ml (KPN 6299; with Example 16 at 4 μg/ml): <0.031 µg/mL
- MIC ATB alone (KPN UFR42; antibiotic alone): >32 µg/mL
- MIC ATB combined with Example 1 @8 μg/ml (KPN UFR42; with Example 1 @8 μg/ml): >32 µg/mL
- MIC ATB combined with Example 1 @8 μg/ml (KPN UFR42; with Example 1 at 8 μg/ml): >32 µg/mL
- MIC ATB combined with Example 7 @8 μgml (KPN UFR42; with Example 7 at 8 μg/ml): >32 µg/mL
- MIC ATB combined with Example 9 @4 μg/ml (KPN UFR42; with Example 9 @4 μg/ml): >32 µg/mL
- MIC ATB combined with Example 9 @4 μg/ml (KPN UFR42; with Example 9 at 4 μg/ml): >32 µg/mL
- MIC ATB combined with Example 11 @8 μg/ml (KPN UFR42; with Example 11 at 8 μg/ml): >32 µg/mL
- MIC ATB combined with Example 12 @8 μg/ml (KPN UFR42; with Example 12 at 8 μg/ml): <0.031 µg/mL
- MIC ATB combined with Example 13 @8 μg/ml (KPN UFR42; with Example 13 at 8 μg/ml): >32 µg/mL
- MIC ATB combined with Example 14 @8 μg/ml (KPN UFR42; with Example 14 at 8 μg/ml): <0.031 µg/mL
- MIC ATB combined with Example 15 @4 μgml (KPN UFR42; with Example 15 at 4 μg/ml): >32 µg/mL
- MIC ATB combined with Example 16 @4 μg/ml (KPN UFR42; with Example 16 at 4 μg/ml): <0.031 µg/mL
- MIC ATB combined with Example 9 @4 μg/ml (SPN 49619; with Example 9 @4 μg/ml): <0.031 µg/mL
- MIC ATB combined with Example 9 @4 μg/ml (SPN 49619; with Example 9 at 4 μg/ml): <0.031 µg/mL
- MIC ATB combined with Example 12 @8 μg/ml (SPN 49619; with Example 12 at 8 μg/ml): <0.031 µg/mL
- MIC ATB combined with Example 14 @8 μg/ml (SPN 49619; with Example 14 at 8 μg/ml): <0.031 µg/mL
- MIC ATB combined with Example 7 @8 μgml (ECL P99; with Example 7 at 8 μg/ml): >32 µg/mL
- MIC ATB combined with Example 9 @4 μg/ml (ECL P99; with Example 9 @4 μg/ml): <0.031 µg/mL
- MIC ATB combined with Example 9 @4 μg/ml (ECL P99; with Example 9 at 4 μg/ml): <0.031 µg/mL
- MIC ATB combined with Example 11 @8 μg/ml (ECL P99; with Example 11 at 8 μg/ml): <0.031 µg/mL
- MIC ATB combined with Example 12 @8 μg/ml (ECL P99; with Example 12 at 8 μg/ml): <0.031 µg/mL
- MIC ATB combined with Example 13 @8 μg/ml (ECL P99; with Example 13 at 8 μg/ml): >32 µg/mL
- MIC ATB combined with Example 14 @8 μg/ml (ECL P99; with Example 14 at 8 μg/ml): <0.031 µg/mL
- MIC ATB combined with Example 15 @4 μgml (ECL P99; with Example 15 at 4 μg/ml): <0.031 µg/mL
- MIC ATB combined with Example 16 @4 μg/ml (ECL P99; with Example 16 at 4 μg/ml): <0.031 µg/mL
